# AlphaSeq binding of Ab-14 heavy chain variants to a spike HR2 peptide

The target is the same throughout: PDVDLGDISGINAS, from the HR2 region of SARS-CoV-2 spike.

The variants keep the light chain, the linker and the frameworks of Ab-14 (scFv order VH, three GGGGS repeats, VL).
VH: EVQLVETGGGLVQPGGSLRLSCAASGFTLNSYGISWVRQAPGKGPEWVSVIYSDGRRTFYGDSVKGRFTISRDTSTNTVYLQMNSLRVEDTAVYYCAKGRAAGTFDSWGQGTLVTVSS
VL: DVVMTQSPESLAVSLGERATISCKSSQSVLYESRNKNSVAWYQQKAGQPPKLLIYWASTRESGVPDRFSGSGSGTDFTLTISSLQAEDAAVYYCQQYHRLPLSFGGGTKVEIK

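The starting antibody came from a phage panning campaign against this peptide. The library (AAYL49) carries one to three amino acid substitutions per variant, with no insertions or deletions. The scFvs were displayed on barcoded MATa yeast, the peptide on MATalpha yeast. After mating in shaken culture at 30 °C for 16 h, diploids were selected and their barcode pairs sequenced. Read counts were normalised to the haploid input and turned into Kd by a linear fit to BCL2-family pairs of known affinity, for each replicate. Mating was done three times.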

Variants are written as CDR1, CDR2 and CDR3 of the heavy chain (limits as in the source). Parent: GFTLNSYGIS, VIYSDGRRTFYGDSVK, GRAAGTFDS. The read-out is the apparent dissociation constant on a log10 scale (nM): the lower, the stronger. "ND" marks a missing value. The strain was present, yet no cells mated with the target were sequenced in that replicate, which points to weak or no binding. Three control strains display no target. For library AAYL49, 15% of the pairings with them gave a signal, with a median of 4.06 and one signal in twenty below 2.83, so weak values seen in few replicates may be background. Also given: how often the same scFv was detected with the empty control strains, with their mean in brackets. Parent in this assay: reference entry 0.65, copy in this library 4.11 (one replicate of three).

CDR-H1	CDR-H2	CDR-H3	log10 Kd (nM) by replicate	control signals
GFTLNSYGIG	SIYSTGRRTFYGDSVK	GRAAGTFDS	ND ND ND	3 of 9 (3.32)
GFTANSYGIS	VIYSDGRRTFYGDTVK	GRAALTFDS	3.18 ND ND	2 of 9 (4.59)
GFTLNCYGIS	VIYSDGERTFYRDSVK	GRAAGTFDS	2.07 1.75 2.20	1 of 9 (5.34)
GFTLNSFGIS	VIYSDGRRTFYGISVK	NRAAGTFDS	3.69 3.83 ND	1 of 9 (3.57)
GFTLNSYGIS	VIYSDGRRTLYGDSVK	LRAAGTFDG	ND ND ND	0 of 9
GITLNSYGIS	VIYSDGRRTFYGDSVK	GRAAGTWDL	1.65 1.76 1.45	1 of 9 (3.28)
GFTWNSYGIS	VIYSDGRRTFYGDSVK	GRAISTFDS	ND ND ND	0 of 9
GFTLNSYGIS	VIYSDGDRTFYGDRVK	CRAAGTFDS	3.36 ND 3.70	3 of 9 (4.68)
GFTLNSYGIS	VIYSDGRRTFIGLSVK	GRAAGTHDS	5.46 ND 3.27	3 of 9 (3.91)
GFTLNSYGIS	VIYSDGRRTFYGDSEK	GRGAGDFDS	6.12 ND ND	1 of 9 (3.54)
GFTLNSYDIS	VIYSDGRRTFYGDSVK	GRQAGTFFS	ND ND ND	0 of 9
GFTLNSYGIF	VIYSYGRREFYGDSVK	GRAAGTFDS	ND ND ND	0 of 9
GFTLNSYVIS	VIYSDQRRTFYGDSVK	GRAAGTFES	3.01 3.85 ND	1 of 9 (5.36)
GFTLNSYGIS	VIYSDKRRTFYGDSVI	HRAAGTFDS	ND ND ND	0 of 9
GFTNNSYGIS	VWMSDGRRTFYGDSVK	GRAAGTFDS	ND 3.66 4.72	1 of 9 (3.65)
GFTLNSYGIS	VIYSDGRRTFYGDHVK	GRAAGTFDS	3.29 1.53 2.41	0 of 9
GFTLNSYGIS	VIYSDGRRLFYGDSVK	GRAARFFDS	ND ND ND	3 of 9 (3.79)
GFTLNSYGIS	PIYSQGRRTFYGDSVK	GRYAGTFDS	ND ND ND	3 of 9 (4.04)
GFELNSYGIS	VIYPDGRRTFYGDSVK	GRAAWTFDS	2.12 1.87 2.05	4 of 9 (4.04)
GFTLNSYPIS	VIYSDGRRTFQGDSVK	GRAAGTCDS	ND ND ND	0 of 9
GFTKNSYGIS	VIYSDWRRTFYGDSVK	GRAACTFDS	ND ND ND	0 of 9
GFTLYSYGIS	VIYSDGRRTFFGDSVK	GRPAGTFDS	ND ND ND	2 of 9 (3.83)
GFWLNSYGIS	VIYSDGYRTGYGDSVK	GRAAGTFDS	4.65 4.00 4.03	4 of 9 (4.37)
GITLNSYGIS	VIYSDGRETFYGDSVK	GRAEGTFDS	ND ND ND	0 of 9
FFTLNSYGIS	VIYSDGRRTFAGDSVK	GRAAGTFYS	ND ND ND	1 of 9 (3.02)
PFTLNSYGIS	VIYSDGRRTFYGDSVK	GRAAGTFDS	1.61 1.81 1.76	1 of 9 (3.90)
GFTLWSYGIS	MIYSDGRRTFYRDSVK	GRAAGTFDS	4.37 ND ND	5 of 9 (3.85)
GFTLNSYGIS	VIYVDLRRTFYGDSLK	GRAAGTFDS	ND ND ND	1 of 9 (2.20)
GFTLNSFGWS	VIRSDGRRTFYGDSVK	GRAAGTFDS	ND ND ND	0 of 9
GFTLNSYGYS	VIYSDGRRTFYGDSVK	GFAAGTFDT	ND ND 3.98	1 of 9 (4.29)
GFTLNIYGIS	VIYSDGRRTFYGDSEK	GRAAGTFDS	3.55 ND ND	3 of 9 (3.91)
GFTLNSYGKS	VIYSDGRRTFYGDSVK	GRAAGTFDS	ND ND ND	0 of 9
GFTLNSYGIS	VIYSDTRRWFYGDSNK	GRAAGTFDS	ND ND ND	0 of 9
GFTLNSYGIS	NIYSDGRRTFYGDSRK	GRAAFTFDS	ND ND ND	1 of 9 (3.22)
GFTLNSYGIS	VIYSDGRRTFYGDSVK	GWAAWTFES	1.00 1.12 0.85	0 of 9
GFTLNSYGIS	VIYSDGRRTFYGDSVK	GRNAGQLDS	5.25 5.15 ND	4 of 9 (3.84)
GFTLNSYSIS	VIYSDGRWTFYGDSVK	GRAAGTNDS	ND 5.74 4.94	4 of 9 (5.04)
GFTLNSYGIG	VIYSVGRRTFYGDSVK	GRAKGTFDS	ND ND ND	0 of 9
GFTLNSYGIS	VIYSDGRRTFYGNSVK	GRAALTFDQ	ND ND ND	0 of 9

The closing 5 entries, repeated:

CDR-H1	CDR-H2	CDR-H3	log10 Kd (nM) by replicate	control signals
GFTLNSYGIS	VIYSDGRRTFYGDSVK	GWAAWTFES	1.00 1.12 0.85	0 of 9
GFTLNSYGIS	VIYSDGRRTFYGDSVK	GRNAGQLDS	5.25 5.15 ND	4 of 9 (3.84)
GFTLNSYSIS	VIYSDGRWTFYGDSVK	GRAAGTNDS	ND 5.74 4.94	4 of 9 (5.04)
GFTLNSYGIG	VIYSVGRRTFYGDSVK	GRAKGTFDS	ND ND ND	0 of 9
GFTLNSYGIS	VIYSDGRRTFYGNSVK	GRAALTFDQ	ND ND ND	0 of 9

Reference: Engelhart et al. 2022, doi:10.1038/s41597-022-01779-4. File: FLAb, binding data.